Assay results published in patent US7342016B2, “Farnesyl protein transferase inhibitors as antitumor agents” (Schering Corporation, priority 2000, dated 2008).

By UniProt entry, the sequences of proteins in these tests, tags left out.
UniProt P49356, whole entry: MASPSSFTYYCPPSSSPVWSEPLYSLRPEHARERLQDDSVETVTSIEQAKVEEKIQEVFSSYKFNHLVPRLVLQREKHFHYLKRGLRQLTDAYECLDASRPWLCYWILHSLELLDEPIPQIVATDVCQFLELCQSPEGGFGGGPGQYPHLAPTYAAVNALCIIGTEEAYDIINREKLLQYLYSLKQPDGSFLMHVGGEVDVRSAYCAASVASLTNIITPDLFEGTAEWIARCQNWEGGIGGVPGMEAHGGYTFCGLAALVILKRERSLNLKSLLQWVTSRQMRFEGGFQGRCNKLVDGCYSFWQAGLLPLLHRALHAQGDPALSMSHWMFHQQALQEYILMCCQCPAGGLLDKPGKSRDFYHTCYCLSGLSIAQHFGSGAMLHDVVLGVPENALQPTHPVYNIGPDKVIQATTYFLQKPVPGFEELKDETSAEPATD

Columns and labels:
[1] = tested on: Human tumor cells; test: Soft Agar Assay (anchorage-independent growth, colony count); conditions: read-out: Soft Agar IC50
Method: Anchorage-independent growth is a characteristic of tumorigenic cell lines. Human tumor cells can be suspended in growth medium containing 0.3% agarose and an indicated concentration of a farnesyl transferase inhibitor. The solution can be overlayed onto growth medium solidified with 0.6% agarose containing the same concentration of farnesyl transferase inhibitor as the top layer. After the top layer is solidified, plates can be incubated for 10-16 days at 37° C. under 5% CO2 to allow colony outgrowth. After incubation, the colonies can be stained by overlaying the agar with a solution of MTT (3-[4,5-dimethyl-thiazol-2-yl]-2,5-diphenyltetrazolium bromide, Thiazolyl blue) (1 mg/mL in PBS). Colonies can be counted and the IC50's can be determined.

[2] = target: purified human farnesyl protein transferase (Homo sapiens, UniProt P49354+P49356); test: FPT activity: transfer of [3H] farnesyl from [3H] farnesyl pyrophosphate to biotinylated H-ras peptide (SPA); conditions: read-out: FPT IC50
Method: FPT activity was determined by measuring the transfer of [^3H] farnesyl from [^3H] farnesyl pyrophosphate to a biotinylated peptide derived from the C-terminus of H-ras (biotin-CVLS). The reaction mixture contains: 50 mM Tris pH7.7, 5 MM MgCl2, 5 μM Zn^++, 5 mM DTT, 0.1% Triton-X, 0.05 μM peptide, 0.03 nM purified human farnesyl protein transferase, 0.180 μM [^3H] farnesyl pyrophosphate, plus the indicated concentration of tricyclic compound or vehicle control in a total volume of 100 μl. The reaction was incubated in a Vortemp shaking incubator at 37° C., 45 RPM for 60 minutes and stopped with 150 μl of 0.25 M EDTA containing 0.5% BSA and 1.3 mg/ml Streptavidin SPA beads. Radioactivity was measured in a Wallach 1450 Microbeta liquid scintillation counter. Percent inhibition was calculated relative to the vehicle control.

CC(C)OC(=O)NC(C1=Cc2cccnc2[C@@H](N2CCN(C(=O)OC(C)C)CC2)c2ccc(Cl)cc21)c1cncn1C (single isomer, unassigned)
IC50 [1]: < 0.5 nM | IC50 [2]: 1.2 nM
